Ab-14 light chain CDR variants: yeast mating affinities

Values reported by Li et al. 2023, doi:10.1038/s41467-023-39022-2 (FLAb copy).

Binding partner: SARS-CoV-2 spike HR2 peptide, sequence PDVDLGDISGINAS.

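The starting antibody came from a phage panning campaign against this peptide. The variants were designed computationally from a first round of random CDR variants and then made and measured. Group labels follow the data file (En: ensemble of fine-tuned language models; GP: Gaussian process model; HC: hill climbing; Gen: genetic algorithm; Gibbs: Gibbs sampling; a sequence that several methods proposed may carry one label only). Affinity was read by AlphaSeq, a pooled yeast mating assay with surface-displayed partners. Mating (16 h, 30 °C) was followed by selection of diploids and sequencing of their barcodes. Each replicate has its own calibration line, from reference interactions of the BCL2 family. The assay was run in six technical replicates.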

Parent: Ab-14, a human scFv built as VH, a 15-residue (Gly4Ser)3 linker, VL. Only the CDRs of the light chain vary.
VH: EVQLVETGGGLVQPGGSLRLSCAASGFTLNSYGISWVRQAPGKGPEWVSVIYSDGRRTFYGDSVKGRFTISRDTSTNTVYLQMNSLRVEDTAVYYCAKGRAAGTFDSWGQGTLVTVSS
VL: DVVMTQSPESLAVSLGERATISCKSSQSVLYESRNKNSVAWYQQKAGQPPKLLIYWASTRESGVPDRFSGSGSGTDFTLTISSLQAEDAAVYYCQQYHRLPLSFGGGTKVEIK

Each variant's VL is given in full.
This list holds designs with more than six substitutions.
Kd is apparent (estimated from mating counts) and averaged on the log scale over replicates with a signal. Smaller is tighter.
"nd" marks a missing value. The strain was present, yet no cells mated with the target were sequenced in any replicate, which points to weak or no binding.
Of ten entries with the parent sequence, four were seen in most replicates (averages 2.2 nM to 240 nM), three in one and three in none, so single entries are noisy.
A sequence measured in both rounds can read differently, since the two assays cover different ranges.
Background: pairings of all light chain designs with three empty control strains gave a value in 4% of cases (median 430 nM, 5th percentile 38 nM). Values in that range, when seen in few replicates, are hard to tell from nonspecific mating.
The authors' rule: three or more of the six replicates give a measured affinity, fewer mean a poor binder.

Variant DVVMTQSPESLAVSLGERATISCKLSMITGHLSIAKNNVAWYQQKAGQPPKLLIYEMETRENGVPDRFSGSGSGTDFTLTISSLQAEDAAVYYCQQYERLPLSFGGGTKVEIK [En_Gen] showed 2.0 nM (6 of 6 replicates). Variant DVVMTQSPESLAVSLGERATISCKISQMQRVGSTHHNSIAWYQQKAGQPPKLLIYEEATRAKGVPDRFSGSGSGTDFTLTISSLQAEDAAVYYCQQYHRLPLAFGGGTKVEIK [En_Gen] showed nd (0 of 6 replicates). For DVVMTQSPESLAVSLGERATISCHVGHATMLEETVRNSVAWYQQKAGQPPKLLIYNNSTRESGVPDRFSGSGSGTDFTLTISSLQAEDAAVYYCQQYDRLPLSFGGGTKVEIK [En_Gen], the assay gave 190 nM (6 of 6 replicates). For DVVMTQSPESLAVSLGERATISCMISQLYNMGSFAVNSVAWYQQKAGQPPKLLIYQASERCNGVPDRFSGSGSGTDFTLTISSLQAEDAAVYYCQQYDRLPLIFGGGTKVEIK [En_Gen], the assay gave 29 nM (6 of 6 replicates). Variant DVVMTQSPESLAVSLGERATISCKHEEGWLYESRNKNSVAWYQQKAGQPPKLLIYEGSTRESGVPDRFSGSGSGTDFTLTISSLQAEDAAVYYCQQYHRLPLSFGGGTKVEIK [GP_Gibbs] showed 740 pM (6 of 6 replicates). Variant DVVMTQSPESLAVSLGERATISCNISIHGMDENSTRNHIAWYQQKAGQPPKLLIYDTNIRDFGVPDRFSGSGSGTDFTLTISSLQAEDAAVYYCQQYWHLPLSFGGGTKVEIK [En_Gibbs] gave 12 nM (6 of 6 replicates). With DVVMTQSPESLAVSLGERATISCTISQMTALFSQTINNVAWYQQKAGQPPKLLIYEVSTRENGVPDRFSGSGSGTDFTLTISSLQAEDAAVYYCQQYDRLPLVFGGGTKVEIK [En_Gen] the result was 7.7 nM (6 of 6 replicates).

With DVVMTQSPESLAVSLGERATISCHISEMIFAQMKMRNSVAWYQQKAGQPPKLLIYENSTREAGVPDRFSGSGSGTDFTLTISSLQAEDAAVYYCQQYDRLPLSFGGGTKVEIK [En_HC] the result was nd (0 of 6 replicates). Variant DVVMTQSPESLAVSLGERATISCKMMLSLGEFKQSEDNVAWYQQKAGQPPKLLIYDMRVSVAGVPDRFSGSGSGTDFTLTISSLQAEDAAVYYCQQYDHLPLTFGGGTKVEIK [En_Gibbs] gave 100 nM (1 of 6 replicates). For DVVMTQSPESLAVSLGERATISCILDQSQLYESRNKNAVAWYQQKAGQPPKLLIYNASTREMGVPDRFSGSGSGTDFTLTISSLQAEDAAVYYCQQYHRLPLSFGGGTKVEIK [GP_Gibbs], the assay gave 800 pM (6 of 6 replicates). For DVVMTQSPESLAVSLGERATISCHFSQHTMEFMSQNKAVAWYQQKAGQPPKLLIYEVTTTMTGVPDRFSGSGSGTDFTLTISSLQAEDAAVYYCQQYARLPFIFGGGTKVEIK [En_Gibbs], the assay gave 14 nM (6 of 6 replicates). With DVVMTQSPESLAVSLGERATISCSLMQVGGYESNNHDSIAWYQQKAGQPPKLLIYDLRTRESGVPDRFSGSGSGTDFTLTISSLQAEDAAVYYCQQYHRLPLSFGGGTKVEIK [En_HC] the result was 6.8 nM (6 of 6 replicates). Variant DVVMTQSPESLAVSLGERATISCMISQLYNVGTFAINSVAWYQQKAGQPPKLLIYQASLRCNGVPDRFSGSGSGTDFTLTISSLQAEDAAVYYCQQYDRLPLMFGGGTKVEIK [En_Gen] gave 26 nM (3 of 6 replicates). Variant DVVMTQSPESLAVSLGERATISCKSQGGNLYESRNWNSVAWYQQKAGQPPKLLIYKASTRLQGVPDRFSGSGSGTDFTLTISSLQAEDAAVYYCQQYHRLPLSFGGGTKVEIK [GP_Gibbs] showed 5.7 nM (6 of 6 replicates).

With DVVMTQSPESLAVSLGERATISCMISQLFMYGSRHYNSIAWYQQKAGQPPKLLIYQAETREKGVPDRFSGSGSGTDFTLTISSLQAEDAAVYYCQQYDRLPLEFGGGTKVEIK [En_HC] the result was 56 nM (6 of 6 replicates). Variant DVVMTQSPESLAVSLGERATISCHMSMLTLQGQRYRNAVAWYQQKAGQPPKLLIYQMTTRENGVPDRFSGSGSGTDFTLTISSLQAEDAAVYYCQQYDRLPLIFGGGTKVEIK [En_Gen] gave 110 nM (6 of 6 replicates). For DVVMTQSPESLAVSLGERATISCTIGQMLMQGIRNRSNVAWYQQKAGQPPKLLIYEVSQRLNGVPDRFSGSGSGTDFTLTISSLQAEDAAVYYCQQYDRLPLLFGGGTKVEIK [En_Gen], the assay gave 8.7 nM (6 of 6 replicates). For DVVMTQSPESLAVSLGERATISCKLSQSQEYESRNSKSVAWYQQKAGQPPKLLIYNASTRVSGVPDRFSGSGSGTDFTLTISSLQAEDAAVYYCQQYHRLPLSFGGGTKVEIK [GP_Gibbs], the assay gave 1.0 nM (6 of 6 replicates). Variant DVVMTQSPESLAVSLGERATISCKLGEKERMNGMANKNVAWYQQKAGQPPKLLIYADNTRVDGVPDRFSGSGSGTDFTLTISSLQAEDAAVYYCQEYHRLPLIFGGGTKVEIK [En_Gibbs] showed 12 nM (6 of 6 replicates). With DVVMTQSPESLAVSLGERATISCKFSYGVLYEDRNQNSVAWYQQKAGQPPKLLIYNASQREQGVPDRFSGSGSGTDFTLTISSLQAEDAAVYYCQQYHRLPLSFGGGTKVEIK [GP_Gibbs] the result was 970 pM (6 of 6 replicates). Variant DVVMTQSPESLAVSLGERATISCKLGDMVHTESRHKNSIAWYQQKAGQPPKLLIYDMRTRESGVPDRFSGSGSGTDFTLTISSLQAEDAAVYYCQQYYRLPLSFGGGTKVEIK [En_HC] showed 3.0 nM (6 of 6 replicates).

Variant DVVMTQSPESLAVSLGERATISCKIGMSLNQLMHTKNNVAWYQQKAGQPPKLLIYDLVTREQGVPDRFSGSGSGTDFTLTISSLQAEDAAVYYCQQYHRLPLSFGGGTKVEIK [En_Gen] showed 6.5 nM (6 of 6 replicates). With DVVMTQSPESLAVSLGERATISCKLSTSWLYGKRNKNSVAWYQQKAGQPPKLLIYQASLRESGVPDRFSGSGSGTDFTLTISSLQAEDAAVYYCQQYHRLPLSFGGGTKVEIK [GP_Gibbs] the result was 57 nM (6 of 6 replicates). For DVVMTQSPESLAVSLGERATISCKVDSAFLYEQRNKNSVAWYQQKAGQPPKLLIYDASQRESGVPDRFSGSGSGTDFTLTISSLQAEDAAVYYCQQYHRLPLSFGGGTKVEIK [GP_Gibbs], the assay gave 640 pM (6 of 6 replicates).